Tests used:
Type in all cases: in vivo, immunocompromised mice
odontoblasts = assay: Scanning electron microscopy of transplanted tissue, differentiation into odontoblasts; details: 12 weeks after transplantation, FIG. 8
Method: A scanning electron microscope was used to examine whether the dental pulp cells included in the implant were differentiated into odontoblasts in the tissues removed in Example 3-4 (FIG. 8). In this regard, a tissue transplanted with an implant including none of the peptides of the present invention was used as a control group.
Briefly, each tissue was immersed and fixed in 2.5% glutaraldehyde/0.1 M cacodylate buffer for 30 minutes, and each fixed tissue was immersed and reacted in a cacodylate buffer containing 1% osmium tetroxide for 1 hour. After dehydration of the tissues in ethanol and drying, the dried tissues were coated with gold, and visualized under a scanning electron microscope (S-4700, HITACHI, Tokyo, Japan).

BSP = assay: Immunostaining of transplanted tissues for BSP
Method: (§1) To evaluate expression levels of DSP which is an odontoblast-specific differentiation marker gene and BSP which is an osteoblast-specific differentiation marker gene in each of the tissues removed in Example 3-1, immunostaining analysis was performed.
(§2) Briefly, the removed tissues were fixed in 4% paraformaldehyde, decalcified in 10% EDTA (pH 7.4), embedded in paraffin, and then immunostained with anti-DSP and anti-BSP antibodies at a dilution of 1:150 as primary antibodies, and reacted with biotin-labeled goat anti-rabbit IgG (Vector Labs) as secondary antibodies to determine DSP and BSP levels (FIG. 4). In this regard, the tissue transplanted with an implant including none of the peptides of the present invention was used as a control group.
(§3) Immunostaining analysis was performed in the same manner as in Example 3-3, except that the tissues removed in Example 3-4 were used instead of the tissues removed in Example 3-1 (FIG. 7). In this regard, a tissue transplanted with an implant including none of the peptides of the present invention was used as a control group.

[1] = test system: dentin/dental pulp-like tissues; assay: Morphological (H-E) analysis of implants with dental pulp cells and HA/TCP transplanted subcutaneously
Method: 100 mg of a dentin substitute was added to 2×10^6 of dental pulp cells, and mixed with 0.5% fibrin gel to prepare an implant. In this regard, hydroxy apatite/tricalcium phosphate (HA/TCP) ceramic powder (Zimmer, USA) was used as the dentin substitute, and the fibrin gel was prepared by including 10 μg of the peptide of Group 11 (SEQ ID NO: 87), the peptide of Group 12 (SEQ ID NO: 96), or 2 μg of BMP-2. The prepared implant was transplanted into the subcutaneous tissues of immunocompromised mice (NIH-bg-nu-xid; Harlan Laboratories, Indianapolis, Ind.), and the mice were raised for 6 weeks. Then, dentin/dental pulp-like tissues formed from the implants were removed. The removed tissues were fixed in 4% paraformaldehyde, decalcified in 10% EDTA (pH 7.4), embedded in paraffin, and stained with hematoxylin-eosin (H-E) (Vector Labs) to evaluate levels of the dentin/dental pulp-like tissues (FIG. 2). In this regard, an implant including none of the peptides of the present invention was used as a control group.
The levels of dentin/dental pulp-like tissues were evaluated in the same manner as in Example 3-1, except implant-transplanted mice were raised for 12 weeks (FIG. 5).

DSP = assay: Immunostaining of transplanted tissues for DSP
Method: as §1, §2, §3

[2] = 6 weeks after transplantation, FIG. 4
[3] = 12 weeks after transplantation, FIG. 7

In the case of “rhBMP-2: component of the comparative implant with dental pulp cells and HA/TCP, 2 μg in fibrin gel”, the “cells observed at the formed hard tissue (scanning electron microscope)” value (odontoblasts) is reported as “cuboidal cells attached to the surface of the formed hard tissue were observed”, the BSP expression level (BSP; [2]) is reported as “relatively very high BSP expression level” and the BSP expression level (BSP; [3]) is reported as “relatively very high BSP expression level”. The “tissue generated at periphery of HA/TCP particles (H-E)” value ([1]; 6 weeks after transplantation, 10 μg peptide or 2 μg BMP-2 in fibrin gel, FIG. 2) was “generation of bone-like mineralized tissue and bone marrow-like tissue was observed”, the “tissue generated at periphery of HA/TCP particles (H-E)” value ([1]; 12 weeks after transplantation, FIG. 5) was “generation of the bone-like tissue and bone marrow-like tissue having cells entrapped inside the matrix was observed” and the DSP expression level (DSP; [2]) was “little DSP expression”. The DSP expression level (DSP; [3]) was “low DSP expression levels”.

Source: patent publication US10844092B2, “Peptide for promoting regeneration of dentin or dental pulp tissue” (HysensBio Co., Ltd., priority 2016, dated 2020)
